Assay results: patent US4481203A, “Composition containing 1-(n-hexylcarbamoyl)-5-fluorouracil and uracil” (priority 1977, dated 1984)
Read-outs that look alike come from different tables or passages of the source.

Experiments:
[1] = in vivo; conditions: mouse, po
Procedure: (5) The anti-cancer compositions of this invention are tested in mice by the following methods to determine acute toxicity, therapeutic effect and theapeutic index.
Male mice of ICR strain weighing 22±1 g are used, 5 mice in each group. […] Over the following period of three weeks the mice are checked every day for poisoning, body weight and mortality. The LD50 is determined according to the up-and-down method 3 weeks after the administration.

[2] = tested on: sarcoma 180; assay: Therapeutic index (LD50/ED50) in mice (Table 5); format: in vivo, male mice of ICR strain; conditions: oral
Source text: The LD50 and ED50 values obtained above are used to determine the therapeutic index (LD50 /ED50).

| Structure (SMILES) | LD50 at 504 h ([1]; LD50) [mg/kg] | LD50 at 504 h ([1]; mice, uracil (b)/(a) mol ratio 0, as amount of 5-fluorouracil (a), read-out: LD50) [mg/kg] | LD50 at 504 h ([1]; mice, uracil (b)/(a) mol ratio 10, as amount of 5-fluorouracil (a), read-out: LD50) [mg/kg] | Therapeutic index (LD50/ED50) ([2]; uracil (b)/(a) mol ratio 0) | Therapeutic index (LD50/ED50) ([2]; uracil (b)/(a) mol ratio 2.5) | Therapeutic index (LD50/ED50) ([2]; uracil (b)/(a) mol ratio 10) |
| --- | --- | --- | --- | --- | --- | --- |
| CCCC(=O)n1cc(F)c(=O)[nH]c1=O [Compound 10, 1-(n-Butyryl)-5-fluorouracil] | 222 | 320 | 157 | 2.9 | 6.0 | 5.6 |
| CCOCn1cc(F)c(=O)[nH]c1=O [Compound 5, 1-Ethoxymethyl-5-fluorouracil] |  |  |  |  |  | 14.5 |
| O=c1[nH]cc(F)c(=O)[nH]1 [Compound 1, 5-Fluorouracil] |  |  |  |  |  | 16.2 |
| O=c1[nH]c(=O)n(S(=O)(=O)c2ccccc2)cc1F [Compound 8, 1-Benzenesulfonyl-5-fluorouracil] |  |  |  | 5.0 |  | 8.9 |
| O=c1[nH]c(=O)n(C2CCCO2)cc1F (centres unmarked) [Compound 2, 1-(2-Tetrahydrofuryl)-5-fluorouracil, reference compound] | 446 |  |  | 5.9 | 22.3 | 24.1 |
